The values that follow come from patent publication US8183228B2, “Anticoagulant antithrombotic dual inhibitors comprising a biotin label” (MSD OSS B.V. Netherlands, priority 2005, dated 2012).

A word on the IC50: it is the concentration at which inhibition is half-maximal.

For this experiment, the system named is human platelet rich plasma. The experiment is described as follows: Inhibition of human platelet aggregation induced by ADP (PRP). The class given is cell-based. The note with it: read-out: IC50, human platelet aggregation induced by 5 μM ADP. As to the method: The final concentration is 0.38% sodium citrate.
The optical density (OD620) is then measured at 620 nm. […] This is to verify the stability of the platelets (absence of spontaneous platelet aggregation). […] Between two measurements, the plate is shaking for 40 seconds at 1,000 rpm. Each test compound is investigated in at least 2 experiments using PRP from different volunteers.
The mean OD at each compound concentration (including vehicle) is calculated at t=0 min and t=10 min. The percentage inhibition at each concentration is calculated using the formula: […]

Molecules are shown by their SMILES.

Take `CCCCS(=O)(=O)N[C@@H](Cc1ccc(OCCCCC2CCNCC2)cc1)C(=O)O` [tirofiban, reference compound]: the IC50 was in the range of 30 to 60 nM.
